# Laboratory results from patent publication US4277498A, “Amides” (Burroughs Wellcome Co., priority 1976, dated 1981).
# Test: in vivo
# Conditions: mouse, po, mice, p.o. as salt in saline, deaths within two days
# Procedure: Several groups of mice were treated with specific doses of compounds of formula (I) as orally administered salts in saline solution. After treatment of each group with a different dose of a specific compound the number of mice dead in each group within two days was noted. […] The LD50 value is the lethal dose required to kill half of the treated animals.
# The procedure was repeated with other groups of mice for other compounds of formula (I).
compound,measurement,value
"CCCCCC(C)(C)NC(=O)CN.O=C(O)CCC(=O)O [Example 2, hydrogen succinate, 2-Amino-N-(1,1-dimethylhexyl)acetamide hydrogen succinate]",LD50 at 48 h,571 mg/kg
